PubChem BioAssay AID588352 (The Scripps Research Institute Molecular Screening Center, 2011)
The list shows a part of the results, in another mix than the full data. The source made the active and inactive calls.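 The calls were made as follows: active = inhibition above a per-campaign cutoff, the mean of all compounds plus 3 SD (cut at about 60% in these data); inactive = the rest.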

Amino acid sequences for entries named in this document (tags omitted).
UniProt Q9Y6Q9, whole entry: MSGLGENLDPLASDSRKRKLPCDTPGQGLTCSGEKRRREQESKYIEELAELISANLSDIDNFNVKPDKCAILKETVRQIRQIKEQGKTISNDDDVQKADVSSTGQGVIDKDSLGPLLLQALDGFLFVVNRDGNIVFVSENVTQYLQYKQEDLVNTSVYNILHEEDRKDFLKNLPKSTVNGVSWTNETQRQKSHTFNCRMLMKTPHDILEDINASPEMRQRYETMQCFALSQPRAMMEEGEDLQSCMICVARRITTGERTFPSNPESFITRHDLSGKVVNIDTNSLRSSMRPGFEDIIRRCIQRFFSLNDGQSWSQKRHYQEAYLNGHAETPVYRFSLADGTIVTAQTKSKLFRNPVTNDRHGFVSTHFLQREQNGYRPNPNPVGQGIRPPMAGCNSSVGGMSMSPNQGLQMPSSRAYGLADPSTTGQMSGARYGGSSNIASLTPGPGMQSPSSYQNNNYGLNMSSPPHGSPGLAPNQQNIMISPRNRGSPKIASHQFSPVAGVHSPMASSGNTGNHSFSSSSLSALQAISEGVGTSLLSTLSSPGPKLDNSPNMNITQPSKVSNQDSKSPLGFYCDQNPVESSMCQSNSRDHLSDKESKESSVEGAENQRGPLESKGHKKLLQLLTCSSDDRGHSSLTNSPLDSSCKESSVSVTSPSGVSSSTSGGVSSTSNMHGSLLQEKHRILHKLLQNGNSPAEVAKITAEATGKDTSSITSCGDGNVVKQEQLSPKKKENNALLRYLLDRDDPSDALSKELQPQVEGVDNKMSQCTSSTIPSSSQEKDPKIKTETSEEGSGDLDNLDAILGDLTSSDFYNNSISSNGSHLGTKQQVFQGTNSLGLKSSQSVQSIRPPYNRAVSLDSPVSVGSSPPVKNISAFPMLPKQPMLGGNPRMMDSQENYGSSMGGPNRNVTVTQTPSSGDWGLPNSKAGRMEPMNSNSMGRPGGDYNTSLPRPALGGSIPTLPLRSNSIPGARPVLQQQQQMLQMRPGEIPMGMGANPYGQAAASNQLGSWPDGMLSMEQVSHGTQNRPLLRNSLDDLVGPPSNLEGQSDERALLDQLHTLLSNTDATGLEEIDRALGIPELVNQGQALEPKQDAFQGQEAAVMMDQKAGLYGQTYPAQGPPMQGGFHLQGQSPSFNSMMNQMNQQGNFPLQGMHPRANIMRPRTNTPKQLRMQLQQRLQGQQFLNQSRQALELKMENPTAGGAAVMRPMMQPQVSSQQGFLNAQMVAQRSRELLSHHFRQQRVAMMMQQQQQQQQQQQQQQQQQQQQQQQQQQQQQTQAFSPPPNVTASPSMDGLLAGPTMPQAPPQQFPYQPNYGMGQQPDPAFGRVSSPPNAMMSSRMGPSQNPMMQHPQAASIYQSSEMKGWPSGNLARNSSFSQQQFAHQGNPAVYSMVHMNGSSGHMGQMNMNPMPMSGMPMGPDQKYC

What follows are compounds tested against Nuclear receptor coactivator 3 (Homo sapiens) (UniProt Q9Y6Q9) (assay: NCOA3 GAL4-fusion reporter inhibition – cell-based, luminescence, primary screen (AID 588352;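 also: 0% = DMSO-treated cells and 100% = gossypol-treated cells at 36 µM; higher means less SRC3-driven luciferase light from the GAL4 reporter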)). Conditions: HEK293 GAL4-SRC3 luciferase reporter, at 3.6 µM, hits give high values.
With `O=C(NCC1(N2CCCCC2)CCCCC1)c1ccc(OC(F)F)cc1` the inhibition was inactive: 2.62%.
For `CC(C)(C)n1nnnc1C(c1ccccc1OC(F)(F)F)N1CCC(n2c(=O)[nH]c3ccccc32)CC1` (stereo unspecified), the inhibition was inactive: 17.4%.
For `N#CC1(Nc2ccccc2)CCN(CCc2ccccc2)CC1`, the inhibition was inactive: 0.09%.
For `O=c1[nH]c2ccccc2n1C1CCN(C(c2ccccc2OC(F)(F)F)c2nnnn2C2CCCC2)CC1` (stereo unspecified), the inhibition was inactive: -3.64%.
`CCN1CCC(Nc2ccc(Cl)cc2)CC1` was tested, and the inhibition was inactive: 7.28%.
For `O=C(NCC1(N2CCCCC2)CCCCC1)c1cccc([N+](=O)[O-])c1`, the inhibition was inactive: -17.2%.
In the case of `CSc1ccc(C(=O)NCC2(N3CCOCC3)CCCCC2)cc1`, the inhibition is reported as inactive: -0.2%.
For `O=C(NCC1(N2CCCCC2)CCCCC1)c1cccc(C(F)(F)F)c1`, the inhibition was inactive: 12.6%.
`COc1cc(C(=O)NCC2(N3CCCCC3)CCCCC2)ccc1OC(F)F` was tested, and the inhibition was inactive: 11.7%.
In the case of `O=C(NCC1(N2CCOCC2)CCCCC1)c1cc(=O)[nH]c2ccccc12`, the inhibition is reported as inactive: 12.6%.
`CCCCn1nnnc1C(c1cccc2ccccc12)N1CCC(n2c(=O)[nH]c3ccccc32)CC1` (stereo unspecified) was tested, and the inhibition was inactive: 10.4%.
In the case of `CN1CCN(CCOC(=O)C(O)(c2ccccc2)c2ccccc2)CC1`, the inhibition is reported as inactive: 20.7%.
For `COc1ccc(NC2CCN(C(=O)OC(C)(C)C)CC2)cc1`, the inhibition was inactive: -1.13%.
With `CC(C)c1ccc(C(=O)NCC2(N3CCOCC3)CCCCC2)cc1` the inhibition was inactive: -17.1%.
With `CCCCn1nnnc1C(c1ccccc1OC(F)(F)F)N1CCC(n2c(=O)[nH]c3ccccc32)CC1` (stereo unspecified) the inhibition was inactive: 20.7%.
For `CC(C)c1ccc(NC2CCN(C(=O)OC(C)(C)C)CC2)cc1`, the inhibition was inactive: -61.5%.
For `CN(C)c1cccc(C(=O)NCC2(N3CCCCC3)CCCCC2)c1`, the inhibition was inactive: -9.34%.
`COc1ccc(CN(CCCl)CCCl)cc1Cl` was tested, and the inhibition was inactive: 4.06%.
`CCC(c1nnnn1C(C)(C)C)N1CCC(n2c(=O)[nH]c3ccccc32)CC1` (stereo unspecified) was tested, and the inhibition was inactive: -10%.
With `O=C(NCC1(N2CCOCC2)CCCCC1)c1cc(F)c(F)cc1Cl` the inhibition was inactive: 9.79%.
`COc1cc(OC)c(C(=O)NCC2(N(C)C)CCCCC2)cc1OC` was tested, and the inhibition was inactive: 3.39%.
With `CCCCn1nnnc1C(c1ccnc2ccccc12)N1CCC(n2c(=O)[nH]c3ccccc32)CC1` (stereo unspecified) the inhibition was inactive: 0.26%.
For `O=C(NCC1(N2CCCCC2)CCCCC1)c1cncc(Br)c1`, the inhibition was inactive: 0.1%.
In the case of `CN1CCC(Nc2cccc(F)c2)CC1`, the inhibition is reported as inactive: -4.88%.
For `COc1ccc(C(c2nnnn2C2CCCC2)N2CCC(n3c(=O)[nH]c4ccccc43)CC2)cc1` (stereo unspecified), the inhibition was inactive: -0.3%.
`CCCOc1ccc(C(=O)NCC2(N(C)C)CCCCC2)cc1OC` was tested, and the inhibition was inactive: 6.53%.
